Measured values reported in paper PMC9005681, “Use of AD Informer Set compounds to explore validity of novel targets in Alzheimer's disease pathology” (Alzheimer's & Dementia : Translational Research & Clinical …, 2022).

Sequences of proteins named here, by UniProt entry; tags and fusion partners are left off.
UniProt P35367, whole entry: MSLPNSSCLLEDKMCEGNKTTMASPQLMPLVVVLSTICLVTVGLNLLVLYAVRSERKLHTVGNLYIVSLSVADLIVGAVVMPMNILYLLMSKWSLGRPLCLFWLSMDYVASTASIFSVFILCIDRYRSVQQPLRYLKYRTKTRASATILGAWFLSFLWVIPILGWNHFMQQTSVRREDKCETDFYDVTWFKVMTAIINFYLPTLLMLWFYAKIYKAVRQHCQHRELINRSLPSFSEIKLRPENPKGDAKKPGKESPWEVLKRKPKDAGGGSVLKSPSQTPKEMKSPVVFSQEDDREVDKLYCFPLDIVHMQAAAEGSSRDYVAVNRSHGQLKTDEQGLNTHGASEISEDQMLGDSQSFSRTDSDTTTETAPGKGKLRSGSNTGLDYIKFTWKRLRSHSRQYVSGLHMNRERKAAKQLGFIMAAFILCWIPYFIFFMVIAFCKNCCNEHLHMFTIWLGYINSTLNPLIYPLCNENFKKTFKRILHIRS

Assays:
SYK = settings: published affinity; ref PubMed 24779514, Probe Miner, Chemical probes portal; cited from earlier work
[1] = system: phospho-Tau (pTau, Thr231) and total Tau; test: p-tau and t-tau in iPSC-derived neuron lysates, multiplexed ELISA; format: cell-based, human; settings: 48 hours, both doses (0.1, 1 μM)
Procedure: Measurements of phospho-Tau (pTau, Thr231) and total Tau peptides were measured from neuronal lysates, also using a multiplexed ELISA assay. Using this assay, we measured the phospho:total tau ratio for each condition compared to vehicle (DMSO) treatment as well as the individual changes in phospho and total Tau peptides. Finally, all neuronal samples were examined morphologically for evidence of cytotoxicity.

[2] = molecular target: T1, cloned human or rodent CNS receptors, channels, and transporters (PDSP panel) (Homo sapiens, UniProt P35367); test: PDSP GPCR panel primary binding assays at 10 μM; settings: Receptor H1, primary assay
T1 construct: expressed in transfected cells
Procedure: GPCR panel: Screening against the receptors within the PDSP panel offers an assessment of off-target pharmacological activity at cloned human or rodent CNS receptors, channels, and transporters that could confound CNS-related phenotypes. A total of 46–47 primary binding assays were run in quadruplicate on these compounds at 10 μM, with follow-up secondary binding assays in 11-point dose-response in triplicate for select compounds versus select receptors. Secondary binding assays were executed for all receptors where test compound displaced an average of >50% of radio-labeled standard ligand. As an exception, no secondary assays were carried out for H3, PBR, or GABAA. […]

EPHX2 = system: EPHX2; design: method as in column References for potency and dosing (the 5th table c13); settings: published affinity; References for potency and dosing; cited from earlier work

**Q.** Which “Reported on-target biochemical potency, SYK” value (SYK) does the source give for Cl.NC(=O)c1cnc(N[C@@H]2CCCC[C@@H]2N)nc1Nc1cccc(-n2nccn2)c1 [UNC10302682A, P505-15 (PRT06207 HCl)] here?
**A.** 2.1 nM

**Q.** Which results are given for c1cn2cc(-c3ccc4cn[nH]c4c3)nc(Nc3ccc(N4CCOCC4)cc3)c2n1 [UNC10302678A, Entospletinib (GS-9973)]?
**A.** p-tau:t-tau ratio [1]: no change; Inhibition 1 [2]: 100.46%; Inhibition 2 [2]: 89.3%; Inhibition 3 [2]: 77.51%; Inhibition 4 [2]: 57.87%; Mean % ([2]; mean of Inhibition 1-4): 81.29%

**Q.** For CC(=O)N1CCC(NC(=O)NC23CC4CC(CC(C4)C2)C3)CC1 [UNC10302683A, AR9281], which “Reported on-target biochemical potency, EPHX2” value (EPHX2) is on record?
**A.** 15 nM
